# Experiments:
# Assay in all cases: mass photometry; 30 nM SPIN90-C or mutant in PBS, TwoMP instrument (Refeyn), room temperature; dimer and monomer peaks
# [1] = biological target: Human SPIN90-C (residues 274–722) (human) (UniProt Q9NZQ3)
# [2] = biological target: Human SPIN90-C deletion mutant (Δ394–399) (human) (UniProt Q9NZQ3)
# [3] = biological target: Human SPIN90-C glycine substitution mutant (G397–G405) (human) (UniProt Q9NZQ3)
substance,measurement,setting,value
Human SPIN90-C (residues 274–722) (from UniProt Q9NZQ3 274-722) (domain or fragment),stoichiometry N,[1],2
Human SPIN90-C deletion mutant (Δ394–399) (from UniProt Q9NZQ3 274-722) (domain or fragment),stoichiometry N,[2],2
Human SPIN90-C glycine substitution mutant (G397–G405) (from UniProt Q9NZQ3 274-722) (domain or fragment),stoichiometry N,[3],2

# Source: PMC12618257
